Reference: BindingDB's records for doi:10.1016/0896-6273(93)90149-l (The Scripps Research Institute, 1993)

By UniProt entry, the sequences of proteins in these tests, tags left out.
UniProt P19327, whole entry: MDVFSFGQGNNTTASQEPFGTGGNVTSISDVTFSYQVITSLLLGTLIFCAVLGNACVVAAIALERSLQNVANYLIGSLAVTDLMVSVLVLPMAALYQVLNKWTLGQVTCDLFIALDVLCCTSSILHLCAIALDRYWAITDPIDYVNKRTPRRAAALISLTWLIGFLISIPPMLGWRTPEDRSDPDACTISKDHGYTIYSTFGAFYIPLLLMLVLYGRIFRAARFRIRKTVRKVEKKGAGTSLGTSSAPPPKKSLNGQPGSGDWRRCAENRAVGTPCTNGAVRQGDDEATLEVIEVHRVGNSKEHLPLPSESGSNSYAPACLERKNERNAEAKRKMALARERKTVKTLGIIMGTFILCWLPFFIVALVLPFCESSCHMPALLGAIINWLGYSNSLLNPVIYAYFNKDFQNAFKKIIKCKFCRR
UniProt P32305, whole entry: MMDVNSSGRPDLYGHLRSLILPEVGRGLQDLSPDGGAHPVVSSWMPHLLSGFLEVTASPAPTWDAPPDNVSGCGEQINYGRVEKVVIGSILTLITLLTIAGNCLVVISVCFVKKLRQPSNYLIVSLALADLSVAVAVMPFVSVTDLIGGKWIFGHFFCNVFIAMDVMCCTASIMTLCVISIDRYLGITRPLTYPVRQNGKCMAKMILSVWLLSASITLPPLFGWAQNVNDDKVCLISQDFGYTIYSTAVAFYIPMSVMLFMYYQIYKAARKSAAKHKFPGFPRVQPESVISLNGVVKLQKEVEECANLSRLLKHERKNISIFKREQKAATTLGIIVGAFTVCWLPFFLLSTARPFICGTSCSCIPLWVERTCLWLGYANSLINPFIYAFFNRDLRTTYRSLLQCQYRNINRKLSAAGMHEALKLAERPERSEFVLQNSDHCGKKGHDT

Assays:
[1] = target: 5-hydroxytryptamine receptor 1A (Rattus norvegicus, UniProt P19327)
[2] = target: 5-hydroxytryptamine receptor 7 (Rattus norvegicus, UniProt P32305)

Work on `NCC(O)c1ccc(O)c(O)c1` (stereo not drawn) [Noradrenaline,(+)] yielded a Ki [1] of 0.545 µM and a Ki [2] of 0.545 µM.
